# Source: article PMC9160101 (Pharmaceutical Research, 2022)
# Tested on: HµRel hepatocytes
# Test: In vitro metabolism in HµRel human hepatic co-cultures
# Settings: quinidine 1 µM, ulotaront 2 µM
# Source text: HμRel® human hepatic co-cultures were purchased from HμRel® Corporation (North Brunswick, New Jersey).
compound,measurement,value
C=C[C@H]1C[N@@]2CC[C@H]1C[C@@H]2[C@@H](O)c1ccnc2ccc(OC)cc12 [quinidine],effect of pre-treatment on ulotaront metabolism,slightly reduced metabolism
